Reference: patent US20030008329A1 (Takeda / Millennium, published 2003)

Chains of the proteins cited; added tags and fusions are not shown. Lines headed by an entry give the natural chain unless they say otherwise; changes in a name come on top.
UniProt P07480: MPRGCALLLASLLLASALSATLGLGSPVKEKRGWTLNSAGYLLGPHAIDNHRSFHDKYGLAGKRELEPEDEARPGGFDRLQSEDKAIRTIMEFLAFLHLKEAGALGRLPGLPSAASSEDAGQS
UniProt P10683: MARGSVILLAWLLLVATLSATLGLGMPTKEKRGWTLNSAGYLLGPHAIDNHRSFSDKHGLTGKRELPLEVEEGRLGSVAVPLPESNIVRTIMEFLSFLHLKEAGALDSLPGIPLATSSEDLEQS

How the values were obtained:
[1] = target: T1, mouse-derived galanin receptor protein (mouse pancreatic β-cell line MIN6-derived, encoded by pMGR20) (mouse, UniProt P56479 1-348); assay: competition with 100 pM porcine [125I] galanin on membranes of CHO cells expressing the mouse galanin receptor, 25 C 75 min
T1 construct: also called mouse galanin receptor; MIN6-derived galanin receptor protein
T1 sequence: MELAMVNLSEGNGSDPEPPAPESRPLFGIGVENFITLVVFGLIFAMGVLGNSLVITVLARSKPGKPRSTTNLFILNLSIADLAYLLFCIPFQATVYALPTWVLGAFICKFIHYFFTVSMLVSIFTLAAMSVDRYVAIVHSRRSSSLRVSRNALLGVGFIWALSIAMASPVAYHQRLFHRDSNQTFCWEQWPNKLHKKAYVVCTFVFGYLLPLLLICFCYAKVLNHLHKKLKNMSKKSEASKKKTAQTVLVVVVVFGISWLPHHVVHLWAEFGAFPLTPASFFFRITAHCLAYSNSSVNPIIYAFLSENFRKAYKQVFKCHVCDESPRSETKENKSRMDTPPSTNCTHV

[2] = target: T1, mouse-derived galanin receptor protein …; assay: competition with porcine [125I] galanin on membranes of CHO cells expressing the mouse galanin receptor
[3] = target: T1, mouse-derived galanin receptor protein …; assay: competition with [125I] porcine galanin on MIN6 cell membrane fractions, 25 C 75 min, filtration

B1: porcine galanin (unlabeled) (peptide, UniProt P07480 33-61, looked up)
peptide: GWTLNSAGYLLGPHAIDNHRSFHDKYGLA
notes: mature; The assay used the 29-residue peptide; also called standard porcine galanin; galanin (porcine)
IC50 [1]: 0.25 nM

B2: rat galanin (peptide, UniProt P10683 33-61, looked up)
peptide: GWTLNSAGYLLGPHAIDNHRSFSDKHGLT
notes: mature; The assay used the galanin peptide; also called rat-type galanin
Ki [2]: 0.069 nM
IC50 [1]: 0.25 nM
IC50 [3]: 0.13 nM
